# Patent US7652028B2, “Indenoisoquinolinone analogs and methods of use thereof” (Inotek Pharmaceuticals Corporation, priority 2005, dated 2010)
# Protein sequences, listed by entry. Tags and fused reporters are not part of them.
# UniProt P11103, whole entry: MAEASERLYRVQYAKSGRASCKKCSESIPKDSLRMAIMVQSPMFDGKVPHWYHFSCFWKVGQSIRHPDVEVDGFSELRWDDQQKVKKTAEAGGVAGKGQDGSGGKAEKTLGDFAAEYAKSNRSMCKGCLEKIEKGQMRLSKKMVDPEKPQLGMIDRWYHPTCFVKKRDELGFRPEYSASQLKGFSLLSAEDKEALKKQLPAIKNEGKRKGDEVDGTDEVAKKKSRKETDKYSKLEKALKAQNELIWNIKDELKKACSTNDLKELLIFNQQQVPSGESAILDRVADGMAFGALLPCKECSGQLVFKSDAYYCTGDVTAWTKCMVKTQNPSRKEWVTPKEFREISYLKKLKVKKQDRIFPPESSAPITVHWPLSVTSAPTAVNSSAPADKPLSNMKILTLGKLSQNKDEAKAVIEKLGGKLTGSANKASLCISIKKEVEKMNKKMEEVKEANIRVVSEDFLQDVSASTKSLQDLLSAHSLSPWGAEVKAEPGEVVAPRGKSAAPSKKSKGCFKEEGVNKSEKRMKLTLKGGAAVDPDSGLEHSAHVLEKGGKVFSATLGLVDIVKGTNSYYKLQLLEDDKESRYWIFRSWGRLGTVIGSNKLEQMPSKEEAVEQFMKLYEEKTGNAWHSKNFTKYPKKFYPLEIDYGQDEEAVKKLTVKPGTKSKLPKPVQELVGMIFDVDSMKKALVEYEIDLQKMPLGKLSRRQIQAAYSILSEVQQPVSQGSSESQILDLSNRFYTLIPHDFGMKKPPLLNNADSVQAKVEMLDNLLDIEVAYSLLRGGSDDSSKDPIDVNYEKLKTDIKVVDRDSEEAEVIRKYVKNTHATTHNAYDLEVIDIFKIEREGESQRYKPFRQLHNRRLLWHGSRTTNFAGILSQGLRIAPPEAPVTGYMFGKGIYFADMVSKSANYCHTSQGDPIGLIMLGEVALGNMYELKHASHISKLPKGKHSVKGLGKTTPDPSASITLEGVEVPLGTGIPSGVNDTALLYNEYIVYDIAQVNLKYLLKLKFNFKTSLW
# UniProt P09874, whole entry: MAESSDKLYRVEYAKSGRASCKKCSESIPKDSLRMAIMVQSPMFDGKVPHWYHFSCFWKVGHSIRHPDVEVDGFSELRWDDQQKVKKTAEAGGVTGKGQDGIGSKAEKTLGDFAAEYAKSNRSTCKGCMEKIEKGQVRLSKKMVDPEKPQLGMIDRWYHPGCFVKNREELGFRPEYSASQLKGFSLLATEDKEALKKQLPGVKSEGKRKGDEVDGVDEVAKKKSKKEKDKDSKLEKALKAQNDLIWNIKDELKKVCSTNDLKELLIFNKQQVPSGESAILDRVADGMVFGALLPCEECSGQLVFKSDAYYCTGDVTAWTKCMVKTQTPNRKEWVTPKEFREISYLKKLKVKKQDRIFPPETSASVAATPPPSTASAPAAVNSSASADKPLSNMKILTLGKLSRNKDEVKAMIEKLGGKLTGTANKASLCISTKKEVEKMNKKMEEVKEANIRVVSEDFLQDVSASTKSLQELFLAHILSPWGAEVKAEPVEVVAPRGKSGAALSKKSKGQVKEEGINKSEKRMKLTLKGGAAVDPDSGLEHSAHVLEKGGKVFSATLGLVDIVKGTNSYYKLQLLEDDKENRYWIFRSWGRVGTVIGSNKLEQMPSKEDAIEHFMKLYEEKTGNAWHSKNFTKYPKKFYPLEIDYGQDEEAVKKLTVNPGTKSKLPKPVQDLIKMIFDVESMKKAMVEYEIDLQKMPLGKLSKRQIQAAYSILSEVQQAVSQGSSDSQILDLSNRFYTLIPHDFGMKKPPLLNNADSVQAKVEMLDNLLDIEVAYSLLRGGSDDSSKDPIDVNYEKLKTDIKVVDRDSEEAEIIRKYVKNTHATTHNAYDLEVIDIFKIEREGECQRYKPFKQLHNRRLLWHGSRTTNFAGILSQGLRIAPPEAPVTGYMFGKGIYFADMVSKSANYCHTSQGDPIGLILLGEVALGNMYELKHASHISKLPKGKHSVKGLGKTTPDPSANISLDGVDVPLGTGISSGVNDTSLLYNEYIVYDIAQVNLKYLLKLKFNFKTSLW
# Target: PARP (Mus musculus, UniProt P11103)
# Assay: PARP activity in hydrogen peroxide-stimulated murine RAW macrophages, whole-cell based assay (3H-NAD+ incorporation)
# Conditions: read-out: EC50 value, hydrogen peroxide (0.5 mM) for 25 minutes after 1 hour pretreatment
# Method: The murine RAW macrophages (ATCC, American Type Culture Collection, Manassas, Va.) were grown in RPMI 1650 (Invitrogen Life Technologies; Carlsbad, Calif.) medium supplemented with 10% heat-inactivated FBS, 2 mM L-glutamine, and 100 U/ml of penicillin and streptomycin. Cells, between passages 5 and 15, were seeded at a density of 250,000 cells/well in 12 well plates and allowed to grow 48 hours before use. Growth medium was changed on the day of use. Cells were treated with an Indenoisoquinolinone Analog diluted in a growth medium supplemented with 10% fetal bovine serum (FBS) for 1 hour prior to the addition of hydrogen peroxide (0.5 mM) for a further 25 minutes. For the measurement of PARP activity, media was removed and replaced with 0.5 ml of the assay buffer (56 mM HEPES-pH 7.5, 28 mM KCl, 28 mM NaCl, 2 mM MgCl2, 0.01% digitonin, and 0.5 μCi/ml of 3H-NAD^+) for 20 minutes. After aspirating the assay buffer, cells were lysed and transferred to eppendorf tubes containing 250 μl of 50% ice-cold trichloroacetic acid (TCA), which were then placed at 4° C. for 4 hours. Samples were centrifuged at 10,000 g for 10 minutes and supernatant removed. The pellets were washed twice with 500 μl of ice-cold 5% w/v TCA. The pellets were then solubilized in 250 μl of NaOH (0.1 M) containing 2% SDS overnight at 37° C. and the PARP activity was then determined by measuring the radioactivity incorporated using a Wallac scintillation counter. The solubilized protein (250 μl) was mixed with 5 ml of scintillation fluid (ScintiSafe Plus, Fisher Scientific) before being counted for 3 minutes. EC50 values were determined from a dose-response curve.
row,Compound,EC50
1,CC(C)N(C)Cc1cccc2c1Cc1c-2[nH]c(=O)c2ccccc12,50 nM
2,O=c1[nH]c2c(c3ccccc13)Cc1cc(CNCCN3CCOCC3)ccc1-2,12 nM
3,O=c1[nH]c2c(c3ccccc13)Cc1cc(CN3CCN(CCO)CC3)ccc1-2,40 nM
4,CCOC(=O)CN1CCN(Cc2ccc3c(c2)Cc2c-3[nH]c(=O)c3ccccc23)CC1,50 nM
5,CCN1CCN(Cc2ccc3c(c2)Cc2c-3[nH]c(=O)c3ccccc23)CC1,30 nM
6,CN(Cc1ccc2c(c1)Cc1c-2[nH]c(=O)c2ccccc12)C1CCCCC1,25 nM
7,O=c1[nH]c2c(c3ccccc13)Cc1cc(CNCCCn3ccnc3)ccc1-2,30 nM
8,O=c1[nH]c2c(c3ccccc13)Cc1cc(CN3CCC(N4CCCCC4)CC3)ccc1-2,30 nM
9,O=c1[nH]c2c(c3ccccc13)Cc1cc(CN3CC[C@@H](O)C3)ccc1-2 [(IIa)(221)],30 nM
10,O=c1[nH]c2c(c3ccccc13)Cc1c(CN3CC[C@@H](O)C3)cccc1-2 [(I)(256)],50 nM
11,O=c1[nH]c2c(c3ccccc13)Cc1cc(CNCCCc3ccccn3)ccc1-2,45 nM
12,O=c1[nH]c2c(c3ccccc13)Cc1cc(CN3CC[C@@H](O)C3)ccc1-2 [(IIa)(225)],40 nM
13,CCN(CC)Cc1cccc2c1Cc1c-2[nH]c(=O)c2ccccc12,< 10 nM
14,O=c1[nH]c2c(c3ccccc13)Cc1cc(CN3CCC(O)CC3)ccc1-2,30 nM
15,CC1CCN(Cc2cccc3c2Cc2c-3[nH]c(=O)c3ccccc23)CC1,30 nM
16,COC(=O)C(NCc1cccc2c1Cc1c-2[nH]c(=O)c2ccccc12)C(C)C (stereo not shown),50 nM
17,O=c1[nH]c2c(c3ccccc13)Cc1cc(CN3CCSCC3)ccc1-2,50 nM
18,O=c1[nH]c2c(c3ccccc13)Cc1cc(CN3CCC(N4CCCC4)CC3)ccc1-2,35 nM
19,CN1CCN(Cc2cccc3c2Cc2c-3[nH]c(=O)c3ccccc23)CC1,35 nM
20,O=c1[nH]c2c(c3ccccc13)Cc1cc(CN3CCCCC3)ccc1-2,25 nM
21,COCCN1CCN(Cc2ccc3c(c2)Cc2c-3[nH]c(=O)c3ccccc23)CC1,45 nM
22,CCCN(CCC)Cc1cccc2c1Cc1c-2[nH]c(=O)c2ccccc12,15 nM
23,CN(C)CCN1CCN(Cc2cccc3c2Cc2c-3[nH]c(=O)c3ccccc23)CC1,40 nM
24,O=c1[nH]c2c(c3ccccc13)Cc1cc(CN3CCN(CC4CCCCC4)CC3)ccc1-2,50 nM
25,CN(Cc1ccco1)Cc1cccc2c1Cc1c-2[nH]c(=O)c2ccccc12,28 nM
26,CN(C)Cc1cccc2c1Cc1c-2[nH]c(=O)c2ccccc12,10 nM
27,O=c1[nH]c2c(c3ccccc13)Cc1c(CN3CC[C@@H](O)C3)cccc1-2 [(I)(246)],30 nM
28,CN(Cc1ccccc1)Cc1ccc2c(c1)Cc1c-2[nH]c(=O)c2ccccc12,30 nM
29,CN(CCc1ccccn1)Cc1cccc2c1Cc1c-2[nH]c(=O)c2ccccc12,40 nM

# Second part, the molecule after the results:
row,EC50,Compound
1,15 nM,O=c1[nH]c2c(c3ccccc13)Cc1c(CN3CCC3)cccc1-2
2,20 nM,O=c1[nH]c2c(c3ccccc13)Cc1cc(CN3CCCC3)ccc1-2
3,< 10 nM,O=c1[nH]c2c(c3ccccc13)Cc1c(CN(CCO)C3CCCCC3)cccc1-2
4,20 nM,O=c1[nH]c2c(c3ccccc13)Cc1c(CNC3CCC(O)CC3)cccc1-2 (stereo not shown)
5,< 5 nM,CC(C)NCc1cccc2c1Cc1c-2[nH]c(=O)c2ccccc12
6,8 nM,CCN(C)Cc1cccc2c1Cc1c-2[nH]c(=O)c2ccccc12
7,20 nM,O=C1CCN(Cc2cccc3c2Cc2c-3[nH]c(=O)c3ccccc23)CC1
8,< 10 nM,O=c1[nH]c2c(c3ccccc13)Cc1c(CNCC3CCCCC3)cccc1-2
9,10 nM,O=c1[nH]c2c(c3ccccc13)Cc1c(CN3CCC(CO)CC3)cccc1-2
10,< 10 nM,O=c1[nH]c2c(c3ccccc13)Cc1cc(CN3CCC(c4ccccc4)CC3)ccc1-2
11,< 5 nM,CCCNCc1cccc2c1Cc1c-2[nH]c(=O)c2ccccc12
12,9 nM,CN(CCO)Cc1cccc2c1Cc1c-2[nH]c(=O)c2ccccc12
13,20 nM,O=c1[nH]c2c(c3ccccc13)Cc1cc(CNCCN3CCCCC3)ccc1-2
14,8 nM,CNCc1cccc2c1Cc1c-2[nH]c(=O)c2ccccc12
15,20 nM,COCCN(CCOC)Cc1ccc2c(c1)Cc1c-2[nH]c(=O)c2ccccc12
16,15 nM,CCOC1CCN(Cc2ccc3c(c2)Cc2c-3[nH]c(=O)c3ccccc23)CC1
17,15 nM,O=c1[nH]c2c(c3ccccc13)Cc1cc(CN3CCC[C@@H](O)C3)ccc1-2
18,15 nM,CC(C)N(Cc1cccc2c1Cc1c-2[nH]c(=O)c2ccccc12)C1CCCCC1

row,EC50,Compound
1,10 nM,O=c1[nH]c2c(c3ccccc13)Cc1c(CN3CCCC(O)C3)cccc1-2 (stereo not shown)
2,< 10 nM,O=c1[nH]c2c(c3ccccc13)Cc1cc(CNCCCN3CCOCC3)ccc1-2
3,< 10 nM,O=c1[nH]c2c(c3ccccc13)Cc1c(CNC3CCCC3)cccc1-2
4,< 10 nM,O=c1[nH]c2c(c3ccccc13)Cc1c(CNC3CCCCC3)cccc1-2
5,< 10 nM,CCN(Cc1cccc2c1Cc1c-2[nH]c(=O)c2ccccc12)C1CCCCC1
6,< 10 nM,O=c1[nH]c2c(c3ccccc13)Cc1c(CNC3CCCCCC3)cccc1-2
7,20 nM,CC(C)N(Cc1cccc2c1Cc1c-2[nH]c(=O)c2ccccc12)C(C)C
8,3 nM,CN(Cc1cccc2c1Cc1c-2[nH]c(=O)c2ccccc12)C1CCCCC1
9,20 nM,O=c1[nH]c2c(c3ccccc13)Cc1cc(CN3CCC[C@@H]3CO)ccc1-2
10,12 nM,O=c1[nH]c2c(c3ccccc13)Cc1c(CN3CCCC3)cccc1-2
11,< 10 nM,O=c1[nH]c2c(c3ccccc13)Cc1c(CN3CCC(O)CC3)cccc1-2
12,5 nM,CCNCc1cccc2c1Cc1c-2[nH]c(=O)c2ccccc12
13,< 10 nM,O=c1[nH]c2c(c3ccccc13)Cc1c(CN3CCCCC3)cccc1-2
14,8 nM,COCCNCc1cccc2c1Cc1c-2[nH]c(=O)c2ccccc12
15,15 nM,O=c1[nH]c2c(c3ccccc13)Cc1c(CN3CCC(N4CCCC4)CC3)cccc1-2
16,5.5 nM,CCCCNCc1cccc2c1Cc1c-2[nH]c(=O)c2ccccc12
17,14 nM,O=c1[nH]c2c(c3ccccc13)Cc1c(CN3CCSCC3)cccc1-2

# Same assay, conditions: read-out: EC50 value, hydrogen peroxide (0.5 mM) for 25 minutes after 1 hour pretreatment, tested form: methanesulfonate (shown by the NMR sampl)
row,EC50,Compound
1,3 nM,CCCN(C)Cc1cccc2c1Cc1c-2[nH]c(=O)c2ccccc12

# Target: PARP (Homo sapiens, UniProt P09874)
# Assay: PARP activity in hydrogen peroxide-stimulated A549 cells, whole-cell based assay (3H-NAD+ incorporation)
# Conditions: read-out: EC50 value, 15 min pretreatment (10 nM-300 nM), hydrogen peroxide-induced PARP activation, from dose-response curve
# Method: (§1) Human alveolar epithelial cells (A549), an adenocarcinoma cell line with the alveolar type 2 phenotype were cultured in […] medium supplemented with 10% fetal bovine serum. Cells were grown to 80% confluence in 12-well plates and pretreated with various concentrations (10 nM-300 nM) of an Indenoisoquinolinone Analog for 15 minutes. Hydrogen peroxide, a prototypical oxidant that induces DNA single strand breakage, was used to induce PARP activation. Hydrogen peroxide was diluted in culture media and added to the cells in a bolus of 20 μl. After 20 minutes of incubation, the medium was aspirated and 0.5 mL of assay buffer (56 mM HEPES pH 7.5, 28 mM KCl, 28 mM NaCl, 2 mM MgCl2, 0.01% w/v digitonin and 0.5 μCi/ml 3H-NAD^+) was added to cells. Following incubation in the assay buffer (15 minutes at 37° C.), PARP activity was measured. Cells were scraped from the plate, transferred to a 1.5 mL eppendorf tube and then added 200 μl of ice cold 50% w/v TCA. After 4 hours incubation at 4° C., samples were then spun (10 minutes at 10,000 g) and pellets washed twice with ice cold 5% w/v TCA and solubilized overnight in 250 μl 2% w/v SDS/0.1 N NaOH at 37° C. The contents of the tubes were added to 6.5 mL ScintiSafe Plus scintillation liquid (Fisher Scientific) and radioactivity was determined using a liquid scintillation counter (Wallac, Gaithersburg, Md.). […] EC50 values were determined from a dose-response curve. IC50 values were determined using a commercially available in vitro PARP-1 inhibition assay kit (Trevigen, Gaithersburg, Md., USA).
row,Compound,EC50
1,CCCN(CCC)Cc1ccc2c(c1)Cc1c-2[nH]c(=O)c2ccccc12,300 nM
2,O=c1[nH]c2c(c3ccccc13)Cc1c(CN3CCOCC3)cccc1-2,85 nM
3,O=c1[nH]c2c(c3ccccc13)Cc1cc(CN(CCO)CCO)ccc1-2,285 nM
4,O=c1[nH]c2c(c3ccccc13)Cc1cc(CO)ccc1-2,100 nM
5,O=c1[nH]c2c(c3ccccc13)Cc1cc(CNCCN3CCOCC3)ccc1-2,12 nM
6,O=c1[nH]c2c(c3ccccc13)Cc1c(CNCCN3CCOCC3)cccc1-2,90 nM
7,CN(C)Cc1ccc2c(c1)Cc1c-2[nH]c(=O)c2ccccc12,75 nM
8,O=c1[nH]c2c(c3ccccc13)Cc1c(CN(CCO)CCO)cccc1-2,275 nM
9,CCCN(CCC)Cc1cccc2c1Cc1c-2[nH]c(=O)c2ccccc12,15 nM
10,CN(C)Cc1cccc2c1Cc1c-2[nH]c(=O)c2ccccc12,10 nM

# Target: PARP-1 (Homo sapiens, UniProt P09874)
# Assay: in vitro PARP-1 inhibition assay kit (Trevigen)
# Format: biochemical
# Conditions: read-out: IC50 value; commercially available in vitro PARP-1 inhibition assay kit (Trevigen)
# Method: The potency of inhibition of purified PARP enzyme can be subsequently determined for selected Indenoisoquinolinone Analogs, and the potency is compared with that of 3-aminobenzamide, a prototypical benchmark PARP inhibitor. The assay is performed in 96 well ELISA plates according to instructions provided with a commercially available PARP inhibition assay kit (for example, from Trevigen, Gaithersburg, Md.).
# as §1
row,Compound,IC50
1,CCN(CC)Cc1cccc2c1Cc1c-2[nH]c(=O)c2ccccc12,10 nM
2,O=c1[nH]c2c(c3ccccc13)Cc1c(CN3CCC(O)C3)cccc1-2 (stereo not shown),20 nM
3,CCCN(CCC)Cc1cccc2c1Cc1c-2[nH]c(=O)c2ccccc12,300 nM
4,O=c1[nH]c2c(c3ccccc13)Cc1c(CN3CC=C(c4ccc(F)cc4)CC3)cccc1-2,300 nM
